`CN1CC[C@]23c4c5ccc(O)c4O[C@H]2C(=O)CC[C@H]3[C@H]1C5` [Hydromorphone] showed a Required flux (derived from daily dose, bioavailability and a theoretical patch size) of 11.4 μg/cm^2/h. In addition, where the note is “from oral dose (mg/day) and bioavailability”, the “Dose after first pass effect” value is 10.9 mg/day.

Values taken from patent US10071090B2 (priority 2014, dated 2018).
